## Binding of CDR-mutated scFvs to a peptide of the spike HR2 region

The target is the same throughout: PDVDLGDISGINAS, from the HR2 region of SARS-CoV-2 spike.

The variants keep the light chain, the linker and the frameworks of Ab-14 (scFv order VH, three GGGGS repeats, VL).
VH: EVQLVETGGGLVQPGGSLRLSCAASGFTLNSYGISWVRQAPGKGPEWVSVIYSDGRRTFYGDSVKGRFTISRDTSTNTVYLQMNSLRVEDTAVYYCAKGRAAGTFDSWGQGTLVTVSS
VL: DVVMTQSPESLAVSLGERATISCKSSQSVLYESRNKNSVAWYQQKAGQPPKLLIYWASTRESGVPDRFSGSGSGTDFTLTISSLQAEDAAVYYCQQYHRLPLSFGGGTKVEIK

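Designed CDR sequences, proposed from the first random library and measured here. Their group label is 14H_GPLM_Gen (GPLM: also part of the Gaussian process libraries; Gen: genetic algorithm; a sequence that several methods proposed may carry one label only). In AlphaSeq, yeast of one mating type display the scFv and yeast of the other type display the target. Pairs that bind mate more often; barcode pairs of the diploids are counted by sequencing. Read counts were normalised to the haploid input and turned into Kd by a linear fit to BCL2-family pairs of known affinity, for each replicate. The assay was run in six technical replicates.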

Variants are written as CDR1, CDR2 and CDR3 of the heavy chain (limits as in the source). Parent: GFTLNSYGIS, VIYSDGRRTFYGDSVK, GRAAGTFDS.
Numbers give log10(Kd / nM), so 0 is 1 nM and 3 is 1 µM. Smaller is tighter.
A mean of the replicates is given; it leaves out those without a signal.
Where no diploid with the target was found in that replicate, the entry reads "nd": below detection, most likely a poor binder, though not proof of it.
The authors' rule: three or more of the six replicates give a measured affinity, fewer mean a poor binder.
The range of this assay differs from that of the first round, and the authors advise against merging the two.
Of ten entries with the parent sequence, four were seen in most replicates (averages 0.34 to 2.37), three in one and three in none, so single entries are noisy.
Nonspecific signal, from three strains lacking the peptide, appeared in 1% of pairings of all heavy chain designs, centred on 2.08 (5% of these signals below 0.84); values are not corrected for it. For each scFv, signals with the empty controls are counted beside the result, with their mean in brackets.

| # | CDR-H1 | CDR-H2 | CDR-H3 | log10 Kd, replicates | mean, log10 nM | signal with controls |
|---|---|---|---|---|---|---|
| 1 | GFSLNSYGIS | VIYADGRRTFYGDSVK | GQAAGTFDQ | -0.68 / 0.05 / 0.50 / 0.05 / -0.39 / 0.02 | -0.08 | 1/18 (0.26) |
| 2 | GFALNEYGIS | VIYSDGRRTFYGDSVK | GRNAGTFDS | 0.24 / 0.32 / 0.17 / 0.11 / -0.06 / 0.28 | 0.18 | 0/18 |
| 3 | MFSLNSYGIS | VIYSDGRRTFYGDSVK | GQTAGTFDS | nd / nd / nd / nd / nd / nd | nd | 0/18 |
| 4 | GFTLNSYGIS | VIYSDGRRTFYSDSVK | GEAAGTFDK | -0.16 / 0.40 / 0.96 / 1.45 / -0.01 / 0.77 | 0.57 | 0/18 |
| 5 | GFTLNSYGIS | VIYSDGKRTFYGDSVK | GRNAGTFDS | 1.12 / 2.39 / nd / 1.32 / 1.96 / 2.00 | 1.76 | 0/18 |
| 6 | KFSLNSYGIS | VIYSDGRRTFYGDSVK | GRQAGTFDS | nd / nd / nd / nd / nd / nd | nd | 0/18 |
| 7 | GFSLNTYGIS | VIYSDGRRTFYGDSVK | GRTAGTFDS | 0.25 / -0.17 / 0.17 / 0.24 / 0.71 / 0.06 | 0.21 | 0/18 |
| 8 | GFNLNSYGIS | VIYSDGRRTFYADSVK | GQAAGTFDT | 1.49 / 0.43 / -0.27 / 0.49 / 0.56 / 0.20 | 0.48 | 0/18 |
| 9 | GFELNSYGIS | VIYSDGRRTFYADSVK | GWAAGTFDS | 0.70 / 0.94 / 0.73 / 0.94 / 0.60 / 1.03 | 0.82 | 1/18 (2.06) |
| 10 | GFTLNSYGIS | VIYADGRRTFYGDSVK | GEAAGTFDA | -0.42 / -0.63 / -0.36 / -0.41 / -0.63 / -0.47 | -0.49 | 0/18 |
| 11 | GFTLNSYGIS | VIYSDGRRTFYSDSVK | GEAAGTFDN | 0.54 / 1.90 / nd / 1.22 / 1.57 / 1.36 | 1.32 | 0/18 |
| 12 | GFTLESYGIS | VIYSDGRRTFYADSVK | GHAAGTFDS | 1.06 / 0.32 / 0.98 / 1.07 / 0.91 / 1.23 | 0.93 | 1/18 (2.07) |
| 13 | GFTLNSYGIS | VIYSDGLRTFYADSVK | GQAAGTFDS | 0.85 / 0.74 / nd / 0.30 / 1.74 / nd | 0.91 | 0/18 |
| 14 | GFSLNSYGIS | VIYSDGRRTFYADMVK | GKAAGTFDS | nd / nd / nd / nd / nd / nd | nd | 0/18 |
| 15 | GFSLNSYGIS | VIYSDGRRTFYGDSVK | GEAAGTFDT | 0.47 / 0.21 / 0.39 / 0.48 / 0.33 / 0.49 | 0.39 | 0/18 |
| 16 | GFSLNEYGIS | VIYSDGRRTFYDDSVK | GRAAGTFDS | 0.35 / 0.48 / 0.80 / 0.11 / 0.39 / 0.47 | 0.43 | 1/18 (2.15) |
| 17 | GFSLNSYGIS | VIYSDGRRTFYTDSVK | GRLAGTFDS | 0.31 / 0.28 / -0.18 / -0.16 / 0.38 / 0.18 | 0.14 | 0/18 |
| 18 | GFTLESYGIS | VIYSDGRRTFYADSVK | GQAAGTFDS | 0.75 / 0.69 / 0.92 / 0.58 / 0.98 / 0.98 | 0.82 | 0/18 |
| 19 | GFTLNSYGIS | VIYSDGRRTFYADDVK | GRVAGTFDT | 0.46 / 0.28 / 0.19 / 0.12 / 0.48 / 0.30 | 0.31 | 0/18 |
| 20 | GFTLNSYGIS | VIYSDGRRTFYIDSVK | GRVAGTFDS | nd / 1.79 / nd / nd / 1.45 / 1.49 | 1.57 | 1/18 (1.54) |
| 21 | GFTLESYGIS | VIYSDGRRTFYADSVK | GRAAGTFDA | 1.36 / 0.79 / 0.58 / 1.11 / 0.37 / 0.66 | 0.81 | 0/18 |
| 22 | GFSLNSYGIS | VIYSDGRRTFYGDSVK | GEAAGTFDD | 0.56 / 0.52 / 0.84 / 1.37 / 1.85 / 1.04 | 1.03 | 0/18 |
| 23 | GFTLNEYGIS | VIYSDGIRTFYGDSVK | GRTAGTFDS | 0.34 / -0.05 / -0.06 / -0.08 / 0.20 / 0.52 | 0.14 | 0/18 |
| 24 | GFTLNSYGIS | VIYSDGRRTFYIDSVK | GNAAGTFDK | nd / nd / nd / nd / nd / nd | nd | 0/18 |
| 25 | GFSLNEYGIS | VIYSDGRRTFYEDSVK | GRAAGTFDS | 0.61 / nd / nd / nd / nd / 0.85 | 0.73 | 0/18 |
| 26 | GFNLNSYGIS | VIYSDGRRTFYGDSVK | GRTAGTFDT | 0.34 / 0.55 / 0.38 / 0.16 / 0.15 / 0.25 | 0.31 | 1/18 (3.46) |
| 27 | GFTLDSYGIS | VIYSDGRRTFYADSVK | GRVAGTFDS | -0.10 / -0.02 / -0.13 / -0.31 / -0.13 / 0.08 | -0.10 | 2/18 (2.66) |
| 28 | GFSLNSYGIS | VIYSDGRRTFYADSVK | GRTAGTFDR | 1.20 / 0.32 / 0.21 / 0.91 / 0.94 / 0.55 | 0.69 | 0/18 |
| 29 | GFDLNSYGIS | VIYSDGRRTFYGDSVK | GRVAGTFDT | nd / nd / nd / nd / nd / nd | nd | 0/18 |
| 30 | HFSLNSYGIS | VIYSDGRRTFYADSVK | GKAAGTFDS | 1.45 / 0.92 / 1.53 / 0.69 / 1.72 / 0.82 | 1.19 | 0/18 |
| 31 | GFELNSYGIS | VIYSDGRRTFYTDSVK | GRTAGTFDS | 1.32 / 0.97 / 0.25 / 0.29 / 1.55 / 0.49 | 0.81 | 0/18 |
| 32 | GFNLNSYGIS | VIYSDGRRTFYADDVK | GQAAGTFDS | 2.27 / 1.32 / 0.90 / 1.10 / 1.93 / 1.21 | 1.46 | 0/18 |
| 33 | GFSLNSYGIS | VIYSDGKRTFYADSVK | GQAAGTFDS | 0.38 / 0.10 / 0.18 / -0.03 / 0.02 / 0.11 | 0.13 | 1/18 (2.19) |

Again, the first 4 entries without any signal:

CDR-H1	CDR-H2	CDR-H3	log10 Kd, replicates	mean, log10 nM	signal with controls
MFSLNSYGIS	VIYSDGRRTFYGDSVK	GQTAGTFDS	nd / nd / nd / nd / nd / nd	nd	0/18
KFSLNSYGIS	VIYSDGRRTFYGDSVK	GRQAGTFDS	nd / nd / nd / nd / nd / nd	nd	0/18
GFSLNSYGIS	VIYSDGRRTFYADMVK	GKAAGTFDS	nd / nd / nd / nd / nd / nd	nd	0/18
GFTLNSYGIS	VIYSDGRRTFYIDSVK	GNAAGTFDK	nd / nd / nd / nd / nd / nd	nd	0/18

Source: Li et al. 2023 (doi:10.1038/s41467-023-39022-2), MIT Lincoln Laboratory and A-Alpha Bio; data file from the FLAb repository.